Results: publication PMC3992716 (European journal of pharmacology, 2013)

Chains of the proteins cited; added tags and fusions are not shown. Residues count along the entry.
UniProt P30532, 23-468: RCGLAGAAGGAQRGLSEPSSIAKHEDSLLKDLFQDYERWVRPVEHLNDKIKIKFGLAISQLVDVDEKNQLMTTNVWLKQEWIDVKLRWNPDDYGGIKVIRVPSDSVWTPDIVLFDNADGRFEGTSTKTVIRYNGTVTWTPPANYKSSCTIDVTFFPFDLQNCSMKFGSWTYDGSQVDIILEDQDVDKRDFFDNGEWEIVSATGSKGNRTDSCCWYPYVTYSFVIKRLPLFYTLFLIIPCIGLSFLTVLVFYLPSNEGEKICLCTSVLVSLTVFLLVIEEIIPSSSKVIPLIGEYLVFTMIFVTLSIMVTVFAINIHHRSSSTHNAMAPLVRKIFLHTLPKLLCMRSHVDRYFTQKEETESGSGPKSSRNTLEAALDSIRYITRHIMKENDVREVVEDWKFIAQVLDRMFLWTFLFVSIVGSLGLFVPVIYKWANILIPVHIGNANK
UniProt P30926, 22-498: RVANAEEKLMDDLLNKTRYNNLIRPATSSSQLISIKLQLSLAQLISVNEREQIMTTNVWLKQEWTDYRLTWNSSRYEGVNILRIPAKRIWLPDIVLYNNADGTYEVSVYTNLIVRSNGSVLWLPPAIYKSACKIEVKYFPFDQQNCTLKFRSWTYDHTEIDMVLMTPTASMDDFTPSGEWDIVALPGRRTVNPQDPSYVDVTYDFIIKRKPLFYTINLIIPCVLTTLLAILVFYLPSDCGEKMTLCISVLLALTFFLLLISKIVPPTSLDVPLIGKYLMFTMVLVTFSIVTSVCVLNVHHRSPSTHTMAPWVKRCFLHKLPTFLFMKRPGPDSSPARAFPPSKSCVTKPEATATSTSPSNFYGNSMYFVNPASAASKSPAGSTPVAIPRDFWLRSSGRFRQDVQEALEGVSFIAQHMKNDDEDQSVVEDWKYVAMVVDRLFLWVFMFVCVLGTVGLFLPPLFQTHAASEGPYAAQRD
UniProt P32297, 32-505: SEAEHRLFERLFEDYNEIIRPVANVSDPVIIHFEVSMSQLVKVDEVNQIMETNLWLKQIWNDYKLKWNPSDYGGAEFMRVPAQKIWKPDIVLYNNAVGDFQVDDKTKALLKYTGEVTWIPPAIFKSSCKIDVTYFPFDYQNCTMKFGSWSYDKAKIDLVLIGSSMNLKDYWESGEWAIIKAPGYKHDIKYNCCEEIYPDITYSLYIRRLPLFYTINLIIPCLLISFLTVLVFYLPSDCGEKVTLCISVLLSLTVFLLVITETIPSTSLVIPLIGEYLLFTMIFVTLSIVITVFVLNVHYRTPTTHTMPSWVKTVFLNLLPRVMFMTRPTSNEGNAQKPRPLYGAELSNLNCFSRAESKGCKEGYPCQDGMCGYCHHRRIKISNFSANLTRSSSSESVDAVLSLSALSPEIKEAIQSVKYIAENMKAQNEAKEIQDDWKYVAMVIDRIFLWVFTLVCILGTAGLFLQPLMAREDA

Molecular target: α3(2)β4(2)α5 (Homo sapiens, UniProt P30532+P30926+P32297)
Type: cell-based

Row | IC50 [µM] | Structure (SMILES)
1 | 0.6 ± 0.07 | CNC1(C)C2CCC(C2)C1(C)C (stereo not drawn) [R(-)Mecamylamine, N-2,3,3-tetramethylbicyclo[2.2.1]heptan-2-amine]
2 | 0.89 ± 0.18 | CN[C@@]1(C)[C@@H]2CC[C@@H](C2)C1(C)C [S(+)Mecamylamine, N-2,3,3-tetramethylbicyclo[2.2.1]heptan-2-amine]
